Calls of active or inactive are those of the source. No cut-off for these calls is given here.

The chains behind the UniProt entries cited, without tags or fusion partners.
UniProt P41595, whole entry: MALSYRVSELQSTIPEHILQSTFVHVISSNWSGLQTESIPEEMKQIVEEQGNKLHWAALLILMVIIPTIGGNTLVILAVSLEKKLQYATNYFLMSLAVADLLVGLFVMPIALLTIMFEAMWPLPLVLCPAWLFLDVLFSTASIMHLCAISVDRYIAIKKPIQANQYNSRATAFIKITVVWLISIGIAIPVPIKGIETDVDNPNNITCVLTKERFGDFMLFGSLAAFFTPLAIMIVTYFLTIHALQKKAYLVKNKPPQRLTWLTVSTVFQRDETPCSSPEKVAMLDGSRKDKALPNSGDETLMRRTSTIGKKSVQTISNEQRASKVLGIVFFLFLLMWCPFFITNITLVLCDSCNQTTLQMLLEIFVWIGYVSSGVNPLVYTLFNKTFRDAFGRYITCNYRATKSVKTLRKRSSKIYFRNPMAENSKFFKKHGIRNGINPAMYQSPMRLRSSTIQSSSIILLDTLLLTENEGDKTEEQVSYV

Series [1] is described as follows: Toxicity in dog assessed as NOAEL at 10 mg/kg, po. Particulars: in vivo. It is filed as organism-based, Canis lupus familiaris.
Series [2] is described as follows: Chemical stability of compound in SGF buffer at pH 1.2 measured after 4 hrs. It is filed as ADME, physicochemical. The note with it: simulated gi fluid, pH 1.2, 4 h.
Series [3] is described as follows: AUC in rat at 300 mg/kg, po. It is filed as ADME, organism-based. Particulars: in vivo.
The nature of series [4]: Chemical stability of compound in PBS buffer at pH 7.4 measured for 24 hrs. Type of series: physicochemical. Particulars: pH 7.4, 24 h.
The target in series [5] is T1, Vasopressin V1b receptor (Homo sapiens) (UniProt P47901).
T1 sequence (whole entry): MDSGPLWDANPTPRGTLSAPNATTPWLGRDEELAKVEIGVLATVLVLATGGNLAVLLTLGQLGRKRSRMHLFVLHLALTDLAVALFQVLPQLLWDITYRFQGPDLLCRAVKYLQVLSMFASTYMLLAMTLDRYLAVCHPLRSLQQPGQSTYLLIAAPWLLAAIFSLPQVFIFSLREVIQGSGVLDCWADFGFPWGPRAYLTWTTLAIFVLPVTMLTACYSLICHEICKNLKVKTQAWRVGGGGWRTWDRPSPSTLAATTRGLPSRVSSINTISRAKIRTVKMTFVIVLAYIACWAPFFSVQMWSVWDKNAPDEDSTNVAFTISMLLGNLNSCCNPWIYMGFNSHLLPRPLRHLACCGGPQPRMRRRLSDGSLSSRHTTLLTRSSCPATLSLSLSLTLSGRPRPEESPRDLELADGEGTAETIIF
The series can be described thus: Binding affinity to human V1b receptor at 10 uM relative to control.

Series [6] in a line: Chemical stability of compound in SIF buffer at pH 6.8 measured after 4 hrs. It is filed as ADME, physicochemical. Particulars: simulated gi fluid, pH 6.8, 4 h.
The nature of series [7]: Toxicity in rat assessed as NOAEL at 300 mg/kg, po measured for 4 days. It is filed as organism-based. Particulars: in vivo, 96 h, time 4 day.
The test system of another series is Rattus norvegicus. Description: Improvement in social behavior in Wistar rat social withdrawal model assessed as improvement in valproic acid-induced social recognition memory at 15 mg/kg, ip administered from day 52 and measured after 60 days. It is filed as functional, organism-based. Particulars: time 8.0 day.
Series [8] deals with 5-hydroxytryptamine receptor 2B (Homo sapiens) (UniProt P41595). The series can be described thus: Displacement of [3H] LSD from full length recombinant human 5-HT2B receptor by scintillation counting analysis. Particulars: filed as agonist. (In general: Loss of bound radioactivity is the signal in a displacement assay; it reports binding, not function.)

Consider `Clc1ccc2c(c1)CC1(Cc3nnc([C@H]4CC[C@H](Oc5ccccn5)CC4)n3-2)OCCO1`, for which the Activity result in series [1] was “Non-Toxic”; in [5], 16%; in [7] it was “Non-Toxic”. Further, the Stability result in series [2], in series [4] and in [6] was “Stable” throughout. This compound also had an AUC in series [3] of 14971 ng/mL.

`CN1Cc2cc(Cl)ccc2-n2c(nnc2[C@H]2CC[C@H](Oc3ccccn3)CC2)C1` [BALOVAPTAN]: the outcome in the series with Rattus norvegicus was Active.

For the compound `CC(C)N[C@@H]1Cc2cc(Cl)ccc2-n2c(nnc2[C@H]2CC[C@H](Oc3ccccn3)CC2)C1`, the outcome in series [8] was Active.

Source of the values: ChEMBL document CHEMBL5532679, “Discovery and Characterization of RGH-122, a Potent, Selective, and Orally Bioavailable V1a Receptor Antagonist” (J Med Chem, 2024).
